{"source": "patent US20040034104A1", "about": "“2,2-Diphenylbutanamide derivatives and medicines containing the same” (priority 2000, published 2004)", "system": "opioid receptor (μ-opioid)", "assay": "Opioid receptor agonist activity in guinea pig ileum longitudinal muscle specimens", "conditions": "agonist activity relative to DAMGO (=1.0); ileum longitudinal muscle specimens with Auerbach's plexus; method of Oka et al.", "protocol": "Hartley male guinea pigs (body weight: about 500 g) wer employed. The ileum (15-30 cm) was removed from the ileocecum of each guinea pig, to thereby prepare longitudinal muscle specimens having Auerbach's plexus. Opioid receptor activity of the test drugs was measured through a method proposed by Oka et al. (Eur. J. Pharmacol., 77; 137-141, 1982). Agonist activity is represented by the efficacy relative to the activity of DAMGO ([D-Ala^2, N-MePhe^4, Gly^5-ol]-enkephalin), which is a selective μ-opioid agonist.", "data": [{"smiles": "CN1CC[C@]23c4c5ccc(O)c4O[C@H]2[C@@H](O)C=C[C@H]3[C@H]1C5", "note": "[Morphine, morphine, reference compound]", "values": [{"measurement": "Relative potency", "value": 0.14}]}]}
